Data on two compounds can be found in PubChem BioAssay AID488 (PCMD, 2006).

The list shows a part of the results, in another mix than the full data. Some tests of the compounds listed are not included; inactive here does not mean inactive elsewhere. Calls of active or inactive are those of the source. Cut-off read from the data, not from the text of the source: active = inhibition above about 22% (passing the limit was not always enough); inconclusive = no clear call, values can overlap the other calls.

The target in the test is Cathepsin B (Homo sapiens) (UniProt P07858). The test is described as follows: cathepsin B inhibitors from pooled compounds, primary screen, biochemical, compound mixtures, AMC fluorescence (AID 488).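 Note: 0% = enzyme without compound and 100% = no enzyme blank.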 Conditions: Purified cathepsin B, AMC dipeptide fluorescence, active compounds read high,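 ten-compound pools at 5 µM per compound and 50 µM total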.
As a reminder, the inhibition is the percentage by which the read-out fell short of the control. For `O=C(OC1CN2CCC1CC2)C(CO)(c1ccccc1)c1ccccc1` (configuration not stated), the inhibition was inactive: 4.68%.

In the case of `CN(C)c1cccc(C(=O)NCC2(N(C)C)CCCCC2)c1`, the inhibition was inactive: 7.2%.
